The entries are a selection whose mix differs from that of the whole data set. Results filed as inconclusive are left out. The source made the active and inactive calls. Calls follow the shape of the dose curve; as a rule, active = well fitted activation curve with a large enough effect in the main read-out, with a control signal flat; inconclusive = small, poorly fitted or top-dose-only effect, or effect the other way, or a change in a side signal; inactive = no such curve, though single readings can be large or run the other way.

Protein sequences, listed by entry. Tags and fused reporters are not part of them.
UniProt P16473, whole entry, looked up: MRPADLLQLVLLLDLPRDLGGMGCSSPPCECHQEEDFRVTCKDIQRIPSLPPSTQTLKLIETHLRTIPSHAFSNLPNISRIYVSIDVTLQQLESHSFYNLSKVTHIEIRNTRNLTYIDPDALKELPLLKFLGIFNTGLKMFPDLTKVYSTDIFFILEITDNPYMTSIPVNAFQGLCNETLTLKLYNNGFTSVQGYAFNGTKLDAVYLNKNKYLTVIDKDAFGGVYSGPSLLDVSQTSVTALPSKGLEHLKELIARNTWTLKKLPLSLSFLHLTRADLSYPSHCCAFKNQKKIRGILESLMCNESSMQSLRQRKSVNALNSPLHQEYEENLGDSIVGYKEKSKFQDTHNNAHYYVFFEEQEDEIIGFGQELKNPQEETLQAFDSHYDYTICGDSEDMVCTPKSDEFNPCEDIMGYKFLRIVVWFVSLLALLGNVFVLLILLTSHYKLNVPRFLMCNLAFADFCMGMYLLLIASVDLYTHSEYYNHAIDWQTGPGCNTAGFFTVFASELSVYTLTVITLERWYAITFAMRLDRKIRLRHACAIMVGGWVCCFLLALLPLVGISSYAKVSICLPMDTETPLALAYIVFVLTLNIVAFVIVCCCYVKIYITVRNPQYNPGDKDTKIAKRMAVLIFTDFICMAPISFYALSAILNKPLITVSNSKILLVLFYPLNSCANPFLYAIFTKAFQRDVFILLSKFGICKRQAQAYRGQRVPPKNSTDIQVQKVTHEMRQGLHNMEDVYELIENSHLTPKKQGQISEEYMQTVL

Our source for the Potency values is PubChem BioAssay AID939 (National Center for Advancing Translational Sciences (NCATS), 2007).

This assay deals with Thyrotropin receptor (Homo sapiens) (UniProt P16473). The assay can be described thus: Confirmation Concentration-Response Assay for Agonists of the Thyroid Stimulating Hormone Receptor. The conditions noted are these: HEK293 TSHR-CNG cells, membrane potential dye, cAMP. The text has this:
NIH Chemical Genomics Center [NCGC] NIH Molecular Libraries Screening Centers Network [MLSCN] MLSCN Grant: 1 X01 MH080680-01 PI Name: Dr. Marvin Gershengorn, NIH NCGC Assay Overview: Thyroid Stimulating Hormone Receptor TSH is an alpha/beta heterodimeric glycoprotein hormone secreted from the anterior pituitary gland which belongs to the glycoprotein hormone family. The actions of TSH are mediated by a seven-transmembrane receptor, which upon TSH binding couples preferentially to the G-alpha (s) protein (Gs), resulting in activation of adenylate cyclase and increase in cyclic adenosine 3', 5' monophosphate (cAMP). The TSH receptor (THSR) is mainly expressed in thyroid follicular cells and regulates their growth and function. […]
NCGC Assay Protocol Summary: High Throughput Screening. […] 23 nl/well compound or control was then added to the assay plates, which were incubated for additional 30 min before reading a Envision fluorescence plate reader (Perkin Elmer) in bottom-read mode for fluorescence intensity (emission at 590 nm). Keywords: Thyroid-stimulating hormone TSH, TSHR, TSHR agonist, quantitative high throughput screening, qHTS, HTS, probe identification, CNG, cAMP, cyclic nucleotide gated ion channel PubChem
Potency is read from the fitted curve at half-maximal effect.

As to `Cc1nn(-c2ccccc2)c2c1P(=O)(N1CCOCC1)N(C)C(c1ccccc1)=N2` (stereo unspecified), the Potency is active: 10 µM.
